Experimental data taken from US7732162.

Key:
[Gln^1]-FPP = biological target: T1, [Gln^1]-FPP
T1 chain: QEP

[Gln^1]-TRH = biological target: T2, [Gln^1]-TRH
T2 chain: QHP

B1: recombinant human glutaminyl cyclase (QC) (protein)
chain: EEKNYHQPAILNSSALRQIAEGTSISEMWQNDLQPLLIERYPGSPGSYAARQHIMQRIQRLQADWVLEIDTFLSQTPYGYRSFSNIISTLNPTAKRHLVLACHYDSKYFSHWNNRVFVGATDSAVPCAMMLELARALDKKLLSLKTVSDSKPDLSLQLIFFDGEEAFLHWSPQDSLYGSRHLAAKMASTPHPPGARGTSQLHGMDLLVLLDLIGAPNPTFPNFFPNSARWFERLQAIEHELHELGLLKDHSLEGRYFQNYSYGGVIQDDHIPFLRRGVPVLHLIPSPFPEVWHTMDDNEENLDESTIDNLNKILQVFVLEYLHL
Work on B1 yielded a KM ([Gln^1]-FPP) of 87 µM and a KM ([Gln^1]-TRH) of 90 µM.
